{
  "source": "patent US11535610B2",
  "about": "“Acid addition salts of benzimidazole derivative” (HK INNO.N CORPORATION, priority 2016, dated 2022)",
  "conditions": "room temperature; supersaturation method; solubility of acid addition salt per se, not converted to free base",
  "data": [
    {"substance": "Fumaric acid", "values": [
      {"measurement": "Water solubility", "result": 52, "unit": "mg/mL"}
    ]}
  ]
}
